Results taken from patent publication US20140100156A1 (SANOFI, priority 2012, published 2014).

Amino acid sequences for entries named in this document (tags omitted). Residues count along the entry.
UniProt P47871, 26-477: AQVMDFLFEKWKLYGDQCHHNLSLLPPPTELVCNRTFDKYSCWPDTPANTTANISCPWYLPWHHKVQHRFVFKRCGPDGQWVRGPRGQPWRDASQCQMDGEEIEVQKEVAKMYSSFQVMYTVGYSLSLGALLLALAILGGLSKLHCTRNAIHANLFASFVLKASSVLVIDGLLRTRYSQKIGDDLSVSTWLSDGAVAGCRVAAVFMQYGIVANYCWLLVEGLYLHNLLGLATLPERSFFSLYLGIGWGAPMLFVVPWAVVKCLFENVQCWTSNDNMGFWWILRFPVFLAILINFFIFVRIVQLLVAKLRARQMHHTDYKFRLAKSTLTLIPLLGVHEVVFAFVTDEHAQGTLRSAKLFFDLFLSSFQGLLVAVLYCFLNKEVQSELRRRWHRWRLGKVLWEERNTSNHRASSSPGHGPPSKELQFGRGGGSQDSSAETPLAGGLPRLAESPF
UniProt P43220, 24-463: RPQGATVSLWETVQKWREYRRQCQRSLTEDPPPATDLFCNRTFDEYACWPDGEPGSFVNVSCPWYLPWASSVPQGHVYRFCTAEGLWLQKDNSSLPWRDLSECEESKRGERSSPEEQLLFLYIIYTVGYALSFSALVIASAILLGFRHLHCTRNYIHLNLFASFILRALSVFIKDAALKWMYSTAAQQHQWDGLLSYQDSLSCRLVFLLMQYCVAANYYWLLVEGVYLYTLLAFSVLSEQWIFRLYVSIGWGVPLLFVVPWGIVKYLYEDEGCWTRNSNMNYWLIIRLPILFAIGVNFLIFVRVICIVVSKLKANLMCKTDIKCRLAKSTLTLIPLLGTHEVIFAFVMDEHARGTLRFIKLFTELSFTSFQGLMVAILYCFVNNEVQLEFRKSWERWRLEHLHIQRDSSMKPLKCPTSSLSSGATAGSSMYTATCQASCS

Columns and labels:
[1] = target: T1, human glucagon receptor (Homo sapiens, UniProt P47871); assay: cAMP response (HTRF) of HEK-293 cells stably expressing human glucagon receptor; assay type: cell-based; conditions: Table 5; cAMP, HEK-293; read-out: EC50 hGlucagon-R
T1 construct: expressed in transfected cells; host or cells: HEK-293

[2] = target: T2, human GLP-1 receptor (Homo sapiens, UniProt P43220); assay: cAMP response (HTRF) of HEK-293 cells stably expressing human GLP-1 receptor; assay type: cell-based; conditions: Table 5; cAMP, HEK-293; read-out: EC50 hGLP-1R
T2 construct: expressed in transfected cells; host or cells: HEK-293

Compound | EC50 [1] | EC50 [2]
CCCCCCCCCCCCCCCC(=O)N[C@@H](CCC(=O)NCCCC[C@H](NC(=O)[C@H](CCC(N)=O)NC(=O)[C@H](CCCCN)NC(=O)[C@H](CO)NC(=O)[C@H](CC(C)C)NC(=O)[C@H](CC(=O)O)NC(=O)[C@H](CO)NC(=O)[C@@H](NC(=O)[C@H](Cc1ccccc1)NC(=O)[C@@H](NC(=O)CNC(=O)[C@H](CCC(N)=O)NC(=O)[C@@H](CO)NC(=O)[C@@H](N)Cc1c[nH]cn1)[C@@H](C)O)[C@@H](C)O)C(=O)N[C@@H](CC(=O)O)C(=O)N[C@@H](CO)C(=O)N[C@@H](CCCNC(=N)N)C(=O)N[C@@H](CCCNC(=N)N)C(=O)N[C@@H](C)C(=O)N[C@@H](CCC(N)=O)C(=O)N[C@@H](CC(=O)O)C(=O)N[C@@H](Cc1ccccc1)C(=O)N[C@H](C(=O)N[C@@H](CCC(=O)O)C(=O)N[C@@H](Cc1c[nH]c2ccccc12)C(=O)N[C@@H](CC(C)C)C(=O)N[C@@H](CCCCN)C(=O)N[C@@H](CC(N)=O)C(=O)NCC(=O)NCC(=O)N1CCC[C@H]1C(=O)N[C@@H](CO)C(=O)N[C@@H](CO)C(=O)NCC(=O)N[C@@H](C)C(=O)N1CCC[C@H]1C(=O)N1CCC[C@H]1C(=O)N1CCC[C@H]1C(=O)N[C@@H](CO)C(=O)NCCOCCOCCOCCOCCC(=O)O)[C@@H](C)CC)C(=O)O [compound 104] | 1.1 pM | 6.5 pM
CCCCCCCCCCCCCCCC(=O)N[C@@H](CCC(=O)NCCCC[C@H](NC(=O)[C@H](CCC(N)=O)NC(=O)[C@H](CCCCN)NC(=O)[C@H](CO)NC(=O)[C@H](CC(C)C)NC(=O)[C@H](CC(=O)O)NC(=O)[C@H](CO)NC(=O)[C@@H](NC(=O)[C@H](Cc1ccccc1)NC(=O)[C@@H](NC(=O)CNC(=O)[C@H](CCC(N)=O)NC(=O)[C@@H](CO)NC(=O)[C@@H](N)Cc1c[nH]cn1)[C@@H](C)O)[C@@H](C)O)C(=O)N[C@@H](CC(=O)O)C(=O)N[C@@H](CO)C(=O)N[C@@H](CCCNC(=N)N)C(=O)N[C@@H](CCCNC(=N)N)C(=O)N[C@@H](C)C(=O)N[C@@H](CCC(N)=O)C(=O)N[C@@H](CC(=O)O)C(=O)N[C@@H](Cc1ccccc1)C(=O)N[C@H](C(=O)N[C@@H](CCC(=O)O)C(=O)N[C@@H](Cc1c[nH]c2ccccc12)C(=O)N[C@@H](CC(C)C)C(=O)N[C@@H](CCCCN)C(=O)N[C@@H](CC(N)=O)C(=O)NCC(=O)NCC(=O)N1CCC[C@H]1C(=O)N[C@@H](CO)C(=O)N[C@@H](CO)C(=O)NCC(=O)N[C@@H](C)C(=O)N1CCC[C@H]1C(=O)N1CCC[C@H]1C(=O)N1CCC[C@H]1C(=O)N[C@@H](CO)C(=O)NCCOCCOCCOCCOCCOCCOCCOCCOCCOCCOCCOCCOCCOCCOCCOCCOCCOCCOCCOCCOCCOCCOCCOCCOCCC(=O)O)[C@@H](C)CC)C(=O)O [compound 105] | 1 pM | 7.9 pM
CCCCCCCCCCCCCCCCNC(=O)[C@H](CO)NC(=O)[C@@H]1CCCN1C(=O)[C@@H]1CCCN1C(=O)[C@@H]1CCCN1C(=O)[C@H](C)NC(=O)CNC(=O)[C@H](CO)NC(=O)[C@H](CO)NC(=O)[C@@H]1CCCN1C(=O)CNC(=O)CNC(=O)[C@H](CC(N)=O)NC(=O)[C@H](CCCCN)NC(=O)[C@H](CC(C)C)NC(=O)[C@H](Cc1c[nH]c2ccccc12)NC(=O)[C@H](CCC(=O)O)NC(=O)[C@@H](NC(=O)[C@H](Cc1ccccc1)NC(=O)[C@H](CC(=O)O)NC(=O)[C@H](CCC(N)=O)NC(=O)[C@H](C)NC(=O)[C@H](CCCNC(=N)N)NC(=O)[C@H](CCCNC(=N)N)NC(=O)[C@H](CO)NC(=O)[C@H](CC(=O)O)NC(=O)[C@H](CCCCNC(=O)CC[C@H](NC(=O)CCCCCCCCCCCCCCC)C(=O)O)NC(=O)[C@H](CCC(N)=O)NC(=O)[C@H](CCCCN)NC(=O)[C@H](CO)NC(=O)[C@H](CC(C)C)NC(=O)[C@H](CC(=O)O)NC(=O)[C@H](CO)NC(=O)[C@@H](NC(=O)[C@H](Cc1ccccc1)NC(=O)[C@@H](NC(=O)CNC(=O)[C@H](CCC(N)=O)NC(=O)[C@@H](CO)NC(=O)[C@@H](N)Cc1c[nH]cn1)[C@@H](C)O)[C@@H](C)O)[C@@H](C)CC [compound 106] | 10.5 pM | 210 pM
CCCCCCCCCCCCCCCC(=O)N[C@@H](CCC(=O)NCCCC[C@H](NC(=O)[C@H](CCC(N)=O)NC(=O)[C@H](CCCCN)NC(=O)[C@H](CO)NC(=O)[C@H](CC(C)C)NC(=O)[C@H](CC(=O)O)NC(=O)[C@H](CO)NC(=O)[C@@H](NC(=O)[C@H](Cc1ccccc1)NC(=O)[C@@H](NC(=O)CNC(=O)[C@H](CCC(N)=O)NC(=O)[C@@H](CO)NC(=O)[C@@H](N)Cc1c[nH]cn1)[C@@H](C)O)[C@@H](C)O)C(=O)N[C@@H](CC(=O)O)C(=O)N[C@@H](CO)C(=O)N[C@@H](CCCNC(=N)N)C(=O)N[C@@H](CCCNC(=N)N)C(=O)N[C@@H](C)C(=O)N[C@@H](CCC(N)=O)C(=O)N[C@@H](CC(=O)O)C(=O)N[C@@H](Cc1ccccc1)C(=O)N[C@H](C(=O)N[C@@H](CCC(=O)O)C(=O)N[C@@H](Cc1c[nH]c2ccccc12)C(=O)N[C@@H](CC(C)C)C(=O)N[C@@H](CCCCN)C(=O)N[C@@H](CC(N)=O)C(=O)NCC(=O)NCC(=O)N1CCC[C@H]1C(=O)N[C@@H](CO)C(=O)N[C@@H](CO)C(=O)NCC(=O)N[C@@H](C)C(=O)N1CCC[C@H]1C(=O)N1CCC[C@H]1C(=O)N1CCC[C@H]1C(=O)N[C@@H](CO)C(=O)NCCCCCCCCCCCCO)[C@@H](C)CC)C(=O)O [compound 107] | 37.8 pM | 188 pM
CCCCCCCCCCCCCCCNC(=O)[C@H](CO)NC(=O)[C@@H]1CCCN1C(=O)[C@@H]1CCCN1C(=O)[C@@H]1CCCN1C(=O)[C@H](C)NC(=O)CNC(=O)[C@H](CO)NC(=O)[C@H](CO)NC(=O)[C@@H]1CCCN1C(=O)CNC(=O)CNC(=O)[C@H](CC(N)=O)NC(=O)[C@H](CCCCN)NC(=O)[C@H](CC(C)C)NC(=O)[C@H](Cc1c[nH]c2ccccc12)NC(=O)[C@H](CCC(=O)O)NC(=O)[C@@H](NC(=O)[C@H](Cc1ccccc1)NC(=O)[C@H](CC(=O)O)NC(=O)[C@H](CCC(N)=O)NC(=O)[C@H](C)NC(=O)[C@H](CCCNC(=N)N)NC(=O)[C@H](CCCNC(=N)N)NC(=O)[C@H](CO)NC(=O)[C@H](CC(=O)O)NC(=O)[C@H](CCCCNC(=O)CC[C@H](NC(=O)CCCCCCCCCCCCCCC)C(=O)O)NC(=O)[C@H](CCC(N)=O)NC(=O)[C@H](CCCCN)NC(=O)[C@H](CO)NC(=O)[C@H](CC(C)C)NC(=O)[C@H](CC(=O)O)NC(=O)[C@H](CO)NC(=O)[C@@H](NC(=O)[C@H](Cc1ccccc1)NC(=O)[C@@H](NC(=O)CNC(=O)[C@H](CCC(N)=O)NC(=O)[C@@H](CO)NC(=O)[C@@H](N)Cc1c[nH]cn1)[C@@H](C)O)[C@@H](C)O)[C@@H](C)CC [compound 108] | 9 pM | 197 pM
CCCCCCCCCCCCCCCCCCNC(=O)[C@H](CO)NC(=O)[C@@H]1CCCN1C(=O)[C@@H]1CCCN1C(=O)[C@@H]1CCCN1C(=O)[C@H](C)NC(=O)CNC(=O)[C@H](CO)NC(=O)[C@H](CO)NC(=O)[C@@H]1CCCN1C(=O)CNC(=O)CNC(=O)[C@H](CC(N)=O)NC(=O)[C@H](CCCCN)NC(=O)[C@H](CC(C)C)NC(=O)[C@H](Cc1c[nH]c2ccccc12)NC(=O)[C@H](CCC(=O)O)NC(=O)[C@@H](NC(=O)[C@H](Cc1ccccc1)NC(=O)[C@H](CC(=O)O)NC(=O)[C@H](CCC(N)=O)NC(=O)[C@H](C)NC(=O)[C@H](CCCNC(=N)N)NC(=O)[C@H](CCCNC(=N)N)NC(=O)[C@H](CO)NC(=O)[C@H](CC(=O)O)NC(=O)[C@H](CCCCNC(=O)CC[C@H](NC(=O)CCCCCCCCCCCCCCC)C(=O)O)NC(=O)[C@H](CCC(N)=O)NC(=O)[C@H](CCCCN)NC(=O)[C@H](CO)NC(=O)[C@H](CC(C)C)NC(=O)[C@H](CC(=O)O)NC(=O)[C@H](CO)NC(=O)[C@@H](NC(=O)[C@H](Cc1ccccc1)NC(=O)[C@@H](NC(=O)CNC(=O)[C@H](CCC(N)=O)NC(=O)[C@@H](CO)NC(=O)[C@@H](N)Cc1c[nH]cn1)[C@@H](C)O)[C@@H](C)O)[C@@H](C)CC [compound 109] | 28.6 pM | 430 pM
CCCCCCCCCCCCCCCC(=O)N[C@@H](CCC(=O)NCCCC[C@H](NC(=O)[C@H](CCC(N)=O)NC(=O)[C@H](CCCCN)NC(=O)[C@H](CO)NC(=O)[C@H](CC(C)C)NC(=O)[C@H](CC(=O)O)NC(=O)[C@H](CO)NC(=O)[C@@H](NC(=O)[C@H](Cc1ccccc1)NC(=O)[C@@H](NC(=O)CNC(=O)[C@H](CCC(N)=O)NC(=O)[C@@H](CO)NC(=O)[C@@H](N)Cc1c[nH]cn1)[C@@H](C)O)[C@@H](C)O)C(=O)N[C@@H](CC(=O)O)C(=O)N[C@@H](CO)C(=O)N[C@@H](CCCNC(=N)N)C(=O)N[C@@H](CCCNC(=N)N)C(=O)N[C@@H](C)C(=O)N[C@@H](CCC(N)=O)C(=O)N[C@@H](CC(=O)O)C(=O)N[C@@H](Cc1ccccc1)C(=O)N[C@H](C(=O)N[C@@H](CCC(=O)O)C(=O)N[C@@H](Cc1c[nH]c2ccccc12)C(=O)N[C@@H](CC(C)C)C(=O)N[C@@H](CCCCN)C(=O)N[C@@H](CC(N)=O)C(=O)NCC(=O)NCC(=O)N1CCC[C@H]1C(=O)N[C@@H](CO)C(=O)N[C@@H](CO)C(=O)NCC(=O)N[C@@H](C)C(=O)N1CCC[C@H]1C(=O)N1CCC[C@H]1C(=O)N1CCC[C@H]1C(=O)N[C@@H](CO)C(=O)NCCCCCCCCCCCCCC)[C@@H](C)CC)C(=O)O [compound 110] | 7.2 pM | 213 pM
CCCCCCCCCCCCCCCC(=O)N[C@@H](CCC(=O)NCCCC[C@H](NC(=O)[C@H](CCC(N)=O)NC(=O)[C@H](CCCCN)NC(=O)[C@H](CO)NC(=O)[C@H](CC(C)C)NC(=O)[C@H](CC(=O)O)NC(=O)[C@H](CO)NC(=O)[C@@H](NC(=O)[C@H](Cc1ccccc1)NC(=O)[C@@H](NC(=O)CNC(=O)[C@H](CCC(N)=O)NC(=O)[C@@H](CO)NC(=O)[C@@H](N)Cc1c[nH]cn1)[C@@H](C)O)[C@@H](C)O)C(=O)N[C@@H](CCC(=O)O)C(=O)N[C@@H](CO)C(=O)N[C@@H](CCCNC(=N)N)C(=O)N[C@@H](CCCNC(=N)N)C(=O)N[C@@H](C)C(=O)N[C@@H](CCC(N)=O)C(=O)N[C@@H](CC(=O)O)C(=O)N[C@@H](Cc1ccccc1)C(=O)N[C@H](C(=O)N[C@@H](CCC(=O)O)C(=O)N[C@@H](Cc1c[nH]c2ccccc12)C(=O)N[C@@H](CC(C)C)C(=O)N[C@@H](CCCCN)C(=O)N[C@@H](CC(N)=O)C(=O)NCC(=O)NCC(=O)N1CCC[C@H]1C(=O)N[C@@H](CO)C(=O)N[C@@H](CO)C(=O)NCC(=O)N[C@@H](C)C(=O)N1CCC[C@H]1C(=O)N1CCC[C@H]1C(=O)N1CCC[C@H]1C(=O)N[C@@H](CO)C(=O)N[C@@H](CCCCN)C(N)=O)[C@@H](C)CC)C(=O)O [compound 111] | 2.5 pM | 8.1 pM
